SMILES strings stand for the structures. A value given as a limit tells only on which side of the number the result lay.

This data set concerns wild-type HepG2 cells. Description: HepG2 cytotoxicity assay (CellTiter-Glo, cellular ATP).

For `O=[N+]([O-])c1nonc1Cn1nnc2ccccc21`, the “Avg. Max % Resp.” value (HepG2 cytotoxicity, maximum response) turned out to be 36.34%. Further, where the note is “read-out: HepG2 CC50, HepG2 cells, CellTiter-Glo, 10 concentrations 3 times”, the CC50 was greater than 24.8 µM.

The record behind these values is patent US20260021071A1, “SMALL MOLECULE BROAD-SPECTRUM ANTIBIOTICS” (University of Florida Research Foundation, Incorporated, priority 2022, published 2026).
